Experimental data reported in patent US6448405B1, “Steroid receptor modulator compounds and methods” (Ligand Pharmaceuticals Incorporated, priority 1994, dated 2002).
Where two headings read alike, the source gives them in different places.

By UniProt entry, the sequences of proteins in these tests, tags left out. Where a name states a change or a piece, a line headed by the entry shows the natural chain unless it says otherwise.
UniProt P10275: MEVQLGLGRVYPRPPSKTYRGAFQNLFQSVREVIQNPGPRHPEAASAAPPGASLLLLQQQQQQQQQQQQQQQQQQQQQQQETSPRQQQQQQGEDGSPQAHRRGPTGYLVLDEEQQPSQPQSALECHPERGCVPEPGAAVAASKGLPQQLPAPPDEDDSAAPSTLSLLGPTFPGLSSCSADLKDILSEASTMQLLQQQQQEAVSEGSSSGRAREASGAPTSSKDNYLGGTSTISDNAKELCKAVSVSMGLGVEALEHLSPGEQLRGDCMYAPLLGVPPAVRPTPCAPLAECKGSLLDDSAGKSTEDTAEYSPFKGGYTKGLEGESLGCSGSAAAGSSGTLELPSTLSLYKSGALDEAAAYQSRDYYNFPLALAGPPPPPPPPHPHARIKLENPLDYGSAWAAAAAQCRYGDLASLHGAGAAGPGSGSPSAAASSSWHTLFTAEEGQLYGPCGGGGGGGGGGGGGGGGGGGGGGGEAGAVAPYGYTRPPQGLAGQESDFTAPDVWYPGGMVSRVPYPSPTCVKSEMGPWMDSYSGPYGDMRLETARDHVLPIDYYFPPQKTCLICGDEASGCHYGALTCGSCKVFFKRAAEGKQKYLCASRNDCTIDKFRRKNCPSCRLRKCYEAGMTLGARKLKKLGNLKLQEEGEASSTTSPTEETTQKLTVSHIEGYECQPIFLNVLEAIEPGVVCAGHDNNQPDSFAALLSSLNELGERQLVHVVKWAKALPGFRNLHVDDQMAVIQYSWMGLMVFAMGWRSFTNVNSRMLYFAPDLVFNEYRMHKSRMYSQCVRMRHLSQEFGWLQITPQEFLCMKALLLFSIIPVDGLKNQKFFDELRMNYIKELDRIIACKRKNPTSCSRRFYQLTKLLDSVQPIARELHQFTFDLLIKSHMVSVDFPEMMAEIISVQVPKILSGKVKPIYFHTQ

Experiments:
[1] = biological target: T1, human progesterone receptor A form (PR-A) (Homo sapiens, UniProt P06401); assay: PR binding assay, baculovirus extract, [3H] progesterone; settings: competition with [3H] progesterone, 4° C., 16 hours
T1 sequence (P06401 1-769 isoform P06401-2): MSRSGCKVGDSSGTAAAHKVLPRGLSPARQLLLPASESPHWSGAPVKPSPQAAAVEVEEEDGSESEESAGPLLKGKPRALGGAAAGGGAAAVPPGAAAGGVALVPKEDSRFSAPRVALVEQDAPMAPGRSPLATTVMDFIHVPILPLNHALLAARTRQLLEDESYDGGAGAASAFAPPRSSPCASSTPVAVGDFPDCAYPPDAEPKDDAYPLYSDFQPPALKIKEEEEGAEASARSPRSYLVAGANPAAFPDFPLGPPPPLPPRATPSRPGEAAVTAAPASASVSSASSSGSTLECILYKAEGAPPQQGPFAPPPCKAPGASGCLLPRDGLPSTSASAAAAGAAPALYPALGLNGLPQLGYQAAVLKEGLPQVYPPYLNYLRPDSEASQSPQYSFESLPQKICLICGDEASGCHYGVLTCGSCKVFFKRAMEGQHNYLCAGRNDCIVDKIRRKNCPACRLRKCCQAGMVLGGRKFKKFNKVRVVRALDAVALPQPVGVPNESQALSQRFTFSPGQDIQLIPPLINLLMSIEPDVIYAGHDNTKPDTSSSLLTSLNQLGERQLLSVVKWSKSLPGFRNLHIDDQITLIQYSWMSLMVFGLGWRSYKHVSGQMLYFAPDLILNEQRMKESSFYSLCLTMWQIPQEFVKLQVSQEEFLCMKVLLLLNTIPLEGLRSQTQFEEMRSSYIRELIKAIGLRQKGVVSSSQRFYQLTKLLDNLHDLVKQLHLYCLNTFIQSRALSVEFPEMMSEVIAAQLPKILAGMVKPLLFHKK

human PR-B = biological target: T2, human PR-B (Homo sapiens, UniProt P06401); assay: Co-transfection assay, PR agonist and antagonist activity, CV-1 cells; settings: read-out: PR Agonist CV-1 Cells Potency, agonist mode;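 further: luciferase reporter driven by a hormone response element, co-transfected with human PR-B into CV-1 monkey kidney cells, agonists raise and antagonists lower the reporter signal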
T2 sequence (P06401 1-933): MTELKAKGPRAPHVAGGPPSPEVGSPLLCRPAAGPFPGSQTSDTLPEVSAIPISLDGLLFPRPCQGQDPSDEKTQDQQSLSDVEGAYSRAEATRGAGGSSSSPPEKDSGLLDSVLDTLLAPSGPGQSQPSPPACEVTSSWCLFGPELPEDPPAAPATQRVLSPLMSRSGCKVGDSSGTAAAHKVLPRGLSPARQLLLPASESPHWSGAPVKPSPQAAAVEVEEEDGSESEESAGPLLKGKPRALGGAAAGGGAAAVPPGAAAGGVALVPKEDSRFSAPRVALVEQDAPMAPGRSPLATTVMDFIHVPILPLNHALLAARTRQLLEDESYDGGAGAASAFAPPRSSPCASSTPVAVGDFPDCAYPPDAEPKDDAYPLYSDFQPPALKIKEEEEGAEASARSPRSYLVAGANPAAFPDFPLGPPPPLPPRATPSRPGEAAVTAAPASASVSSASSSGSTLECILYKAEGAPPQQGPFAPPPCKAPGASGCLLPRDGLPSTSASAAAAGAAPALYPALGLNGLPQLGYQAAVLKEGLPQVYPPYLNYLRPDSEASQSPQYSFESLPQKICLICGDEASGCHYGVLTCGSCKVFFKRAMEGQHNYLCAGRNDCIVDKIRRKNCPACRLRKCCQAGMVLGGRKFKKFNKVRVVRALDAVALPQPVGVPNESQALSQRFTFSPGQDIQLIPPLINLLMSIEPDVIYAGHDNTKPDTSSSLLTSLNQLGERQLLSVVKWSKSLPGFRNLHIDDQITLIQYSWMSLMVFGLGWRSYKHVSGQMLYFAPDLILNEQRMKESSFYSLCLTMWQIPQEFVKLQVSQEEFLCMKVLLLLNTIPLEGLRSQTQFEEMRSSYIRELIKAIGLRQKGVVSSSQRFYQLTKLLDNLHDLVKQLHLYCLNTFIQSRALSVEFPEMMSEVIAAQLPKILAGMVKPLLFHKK

[2] = biological target: T3, human androgen receptor (AR) (Homo sapiens, UniProt P10275); assay: Co-transfection assay, AR agonist and antagonist activity, CV-1 cells (pRShAR); format: cell-based; settings: for EC50: agonist mode, read-out: AR Agonist CV-1 Cells Potency; for IC50: antagonist mode, read-out: AR Antagonist CV-1 Cells Potency
T3 construct: expressed in transfected cells; host or cells: CV-1 cells, transient transfection

human AR = human AR (Homo sapiens, UniProt P10275); assay: AR whole cell binding assay, transfected COS-1 cells, 3H-DHT; settings: read-out: AR Binding Ki; Table 2; competition with 1 nM 3H-DHT, COS-1 whole cells

Row | Substance | Ki [1] [µM] | EC50 (human PR-B) [µM] | EC50 ([2]; Table 2) [µM] | IC50 ([2]; Table 2) [µM] | EC50 [2] [µM] | IC50 ([2]; DHT at its EC50) [µM] | Ki (human AR) [µM]
1 | 1,2-Dihydro-2,2.4-trimethylindeno[2,1-f]quinoline [Compound 116] | 0.038 |  |  |  |  |  | 
2 | 8-Bromo-12-dihydro-2,2,4-trimethylindeno[1,2-]quinoline [Compound 117] | > 10 | > 10 |  |  |  |  | 
3 | (R/S)-4-Ethyl-1,2,3,4-tetrahydro-1-methyl-8-pyranono[5,6-g]quinoline [Compound 416] |  |  | 0.34 | 5.01 | 0.34 | 5.01 | 0.388
